Results taken from paper PMC7677715 (Redox Biology, 2020).

Target: T1, γ-TTP (α-tocopherol transfer protein A156L) (Homo sapiens, UniProt P49638, A156L)
T1 sequence (P49638 1-278 A156L): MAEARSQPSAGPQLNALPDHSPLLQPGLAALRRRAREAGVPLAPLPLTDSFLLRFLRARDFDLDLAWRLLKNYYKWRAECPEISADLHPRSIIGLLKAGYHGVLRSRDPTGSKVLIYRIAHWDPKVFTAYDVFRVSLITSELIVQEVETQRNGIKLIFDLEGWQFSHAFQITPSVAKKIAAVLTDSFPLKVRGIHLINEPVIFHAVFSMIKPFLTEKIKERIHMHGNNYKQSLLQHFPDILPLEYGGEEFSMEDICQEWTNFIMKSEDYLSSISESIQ
Test: FRET ligand transfer to/from liposomes
Format: binding

Kp: 3.08
SMILES: Cc1c(C)c2c(c(C)c1O)CC[C@@](C)(CCC[C@H](C)CCC[C@H](C)CCCC(C)C)O2 [α-tocopherol]
